Biological target: Catenin beta-1/Cadherin-1 (Homo sapiens, UniProt P12830+P35222)
Assay: Inhibition of beta-catenin/E-cad signaling pathway in human COLO 320DM cells assessed as reduction in AXIN2
Type: cell-based

Amino acid sequences for entries named in this document (tags omitted). A change or cut given only in a name is not applied to a line headed by its entry.
UniProt P12830: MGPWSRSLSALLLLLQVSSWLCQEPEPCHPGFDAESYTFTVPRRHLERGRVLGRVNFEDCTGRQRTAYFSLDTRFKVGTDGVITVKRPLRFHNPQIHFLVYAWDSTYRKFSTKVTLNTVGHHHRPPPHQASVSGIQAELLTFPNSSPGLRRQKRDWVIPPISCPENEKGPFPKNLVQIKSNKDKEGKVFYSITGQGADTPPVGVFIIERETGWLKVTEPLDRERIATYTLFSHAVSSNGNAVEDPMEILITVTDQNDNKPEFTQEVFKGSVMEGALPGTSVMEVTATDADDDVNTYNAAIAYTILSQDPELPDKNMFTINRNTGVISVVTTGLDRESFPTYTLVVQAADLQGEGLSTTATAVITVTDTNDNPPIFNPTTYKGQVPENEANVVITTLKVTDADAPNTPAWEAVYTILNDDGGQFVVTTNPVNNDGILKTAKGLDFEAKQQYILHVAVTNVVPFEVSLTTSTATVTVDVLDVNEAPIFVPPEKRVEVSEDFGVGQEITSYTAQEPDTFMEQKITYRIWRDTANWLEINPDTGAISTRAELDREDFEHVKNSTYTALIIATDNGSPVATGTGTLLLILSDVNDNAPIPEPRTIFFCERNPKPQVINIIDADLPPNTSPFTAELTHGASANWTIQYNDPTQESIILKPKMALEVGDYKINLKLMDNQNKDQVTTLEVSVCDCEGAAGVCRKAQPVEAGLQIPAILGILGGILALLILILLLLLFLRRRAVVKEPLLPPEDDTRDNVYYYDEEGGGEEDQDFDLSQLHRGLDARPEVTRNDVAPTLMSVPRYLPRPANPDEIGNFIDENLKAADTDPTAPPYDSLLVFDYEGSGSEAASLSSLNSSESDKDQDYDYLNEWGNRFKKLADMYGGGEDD
UniProt P35222, whole entry: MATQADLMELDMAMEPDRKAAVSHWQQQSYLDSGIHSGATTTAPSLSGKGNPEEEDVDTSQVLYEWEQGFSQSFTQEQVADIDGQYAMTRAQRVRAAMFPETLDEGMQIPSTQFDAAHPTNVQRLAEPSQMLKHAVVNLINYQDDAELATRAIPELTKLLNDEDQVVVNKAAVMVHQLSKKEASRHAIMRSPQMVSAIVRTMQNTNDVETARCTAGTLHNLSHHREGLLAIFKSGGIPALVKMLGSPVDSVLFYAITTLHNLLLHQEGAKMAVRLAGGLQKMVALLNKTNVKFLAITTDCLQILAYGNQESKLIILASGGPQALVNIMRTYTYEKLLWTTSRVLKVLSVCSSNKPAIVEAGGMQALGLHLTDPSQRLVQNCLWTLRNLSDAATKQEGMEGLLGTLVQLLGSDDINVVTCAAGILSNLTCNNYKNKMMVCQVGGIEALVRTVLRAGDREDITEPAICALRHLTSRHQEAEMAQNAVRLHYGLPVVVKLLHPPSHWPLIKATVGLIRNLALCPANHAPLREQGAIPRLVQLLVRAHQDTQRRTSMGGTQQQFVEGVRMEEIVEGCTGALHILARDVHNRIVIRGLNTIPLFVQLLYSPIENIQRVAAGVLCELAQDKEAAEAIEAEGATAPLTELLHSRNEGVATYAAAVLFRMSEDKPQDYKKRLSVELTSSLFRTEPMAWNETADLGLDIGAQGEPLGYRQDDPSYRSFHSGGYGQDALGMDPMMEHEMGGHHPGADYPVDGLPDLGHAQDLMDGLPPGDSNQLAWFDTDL

Compound: O=C(O)CCCn1c2ccccc2c2nc3nonc3nc21
- IC50: 170 µM

Reference: ChEMBL document CHEMBL5226302, “Small-Molecule Inhibitors Targeting the Canonical WNT Signaling Pathway for the Treatment of Cancer” (J Med Chem, 2021)
